{"source": "patent US20050026219", "tested_on": "Epidermal Growth Factor (EGF)"}
{"substance": "Epidermal Growth Factor Receptor Kinase (EGF-RK) isolated from human A 431 carcinoma cells (Messrs. Sigma)", "values": [{"measurement": "activation of EGF-RK by EGF, read as phosphorylation of Poly-(Glu, Tyr) 4:1 (RIfS)", "value": "The use of Epidermal Growth Factor did not confer any recognisable advantage."}]}
